The target in test [1] is T1, von Hippel-Lindau disease tumor suppressor/Bromodomain adjacent to zinc finger domain protein 2A (Homo sapiens, UniProt Q9UIF9+P40337). In words: PROTAC activity at BAZ2A/VHL in human PC-3 cells assessed as degradation at 1 uM after 4 hrs by Western blot analysis. In kind it is cell-based. Background: Immunoblotting shows a protein as a band on a membrane.
Test [2] has as its target T2, von Hippel-Lindau disease tumor suppressor/Bromodomain adjacent to zinc finger domain protein 2B (Homo sapiens, UniProt Q9UIF8+P40337). As to the kind of experiment: PROTAC activity at BAZ2B/VHL in human PC-3 cells assessed as degradation at 1 uM after 4 hrs by Western blot analysis. In kind it is cell-based.
In test [3] the target is T2, von Hippel-Lindau disease tumor suppressor/Bromodomain adjacent to zinc finger domain protein 2B. As to the kind of experiment: PROTAC activity at BAZ2B/VHL in human PC-3 cells assessed as degradation at 0.25 uM after 4 hrs by Western blot analysis. In kind it is cell-based.
Test [4] has as its target T1, von Hippel-Lindau disease tumor suppressor/Bromodomain adjacent to zinc finger domain protein 2A. As to the kind of experiment: PROTAC activity at BAZ2A/VHL in human PC-3 cells assessed as BAZ2A degradation at 0.25 uM after 4 hrs by Western blot analysis. In kind it is cell-based.
Test [5] addresses T2, von Hippel-Lindau disease tumor suppressor/Bromodomain adjacent to zinc finger domain protein 2B. As to the kind of experiment: PROTAC activity at BAZ2B/VHL in human PC-3 cells assessed as protein depletion at 1 uM after 4 hrs by Western blot analysis relative to control. In kind it is cell-based.
In test [6] the target is T1, von Hippel-Lindau disease tumor suppressor/Bromodomain adjacent to zinc finger domain protein 2A. In words: PROTAC activity at BAZ2A/VHL in human PC-3 cells assessed as degradation at 0.25 uM after 4 hrs in the presence of VH032 by Western blot analysis. In kind it is cell-based.
For test [7], the target named is T2, von Hippel-Lindau disease tumor suppressor/Bromodomain adjacent to zinc finger domain protein 2B. As to the kind of experiment: PROTAC activity at BAZ2B/VHL in human MM1.S cells assessed as BAZ2B degradation at 0.25 uM after 4 hrs by western blot analysis. In kind it is cell-based.
Test [8] addresses T1, von Hippel-Lindau disease tumor suppressor/Bromodomain adjacent to zinc finger domain protein 2A. As to the kind of experiment: PROTAC activity at BAZ2A/VHL in human PC-3 cells assessed as induction of BAZ2A degradation at 0.25 uM after 4 hrs by Western blot analysis. In kind it is cell-based.
Test [9] has the same target. In words: PROTAC activity at BAZ2A/VHL in human PC-3 cells assessed as degradation at 1 uM after 2 to 72 hrs by western blot analysis. The note with it: time 2-72 hrs. In kind it is cell-based.
Test [10] shares this target. In words: PROTAC activity at BAZ2A/VHL in human PC-3 cells assessed as degradation at 0.25 uM after 4 hrs in the presence of BAZ2-ICR by Western blot analysis. In kind it is cell-based.
Test [11] has the same target. In words: PROTAC activity at BAZ2A/VHL in human PC-3 cells assessed as degradation at 0.25 uM after 4 hrs in the presence of MG132 by Western blot analysis. In kind it is cell-based.
For test [12] the target is unchanged. As to the kind of experiment: PROTAC activity at BAZ2A/VHL in human PC-3 cells assessed as hook effect at 10 uM after 4 hrs by Western blot analysis. In kind it is cell-based.
The next test relates to MM1.S. In words: Effect on BAZ2A mRNA level in human MM1.S cells at 0.25 uM measured after 4 hrs by RT-qPCR analysis. In kind it is functional, cell-based. Background: In qPCR the cycle at which signal appears reflects the starting amount.
For test [13], the target named is T1, von Hippel-Lindau disease tumor suppressor/Bromodomain adjacent to zinc finger domain protein 2A. As to the kind of experiment: PROTAC activity at BAZ2A/VHL in human PC-3 cells assessed as BAZ2A degradation at 1 uM after 4 hrs by Western blot analysis. In kind it is cell-based.
For test [14], the target named is T2, von Hippel-Lindau disease tumor suppressor/Bromodomain adjacent to zinc finger domain protein 2B. In words: PROTAC activity at BAZ2B/VHL in human PC-3 cells assessed as degradation at 1 uM after 2 to 72 hrs by western blot analysis. In kind it is cell-based. Particulars: time 2-72 hrs.
The target is the same in test [15]. In words: PROTAC activity at BAZ2B/VHL in human PC-3 cells assessed as remaining protein at 1 uM after 4 hrs by Western blot analysis relative to control. In kind it is cell-based.
Test [16] shares this target. As to the kind of experiment: PROTAC activity at BAZ2B/VHL in human PC-3 cells assessed as maximum degradation after 4 hrs by Western blot analysis relative to control. In kind it is cell-based.
For test [17] the target is unchanged. As to the kind of experiment: PROTAC activity at BAZ2B/VHL in human PC-3 cells assessed as hook effect at 10 uM after 4 hrs by Western blot analysis. In kind it is cell-based.
A further test deals with PC-3. In words: Effect on BAZ2A mRNA level in human PC-3 cells at 0.25 uM measured after 4 hrs by RT-qPCR analysis. In kind it is functional, cell-based.
Test [18] has as its target T1, von Hippel-Lindau disease tumor suppressor/Bromodomain adjacent to zinc finger domain protein 2A. In words: PROTAC activity at BAZ2A/VHL in human PC-3 cells assessed as remaining protein at 1 uM after 4 hrs by Western blot analysis relative to control. In kind it is cell-based.
For test [19] the target is unchanged. As to the kind of experiment: PROTAC activity at BAZ2A/VHL in human PC-3 cells assessed as maximal degradation at 1 uM after 48 hrs by western blot analysis. In kind it is cell-based.
Test [20] has the same target. In words: PROTAC activity at BAZ2A/VHL in human MM1.S cells assessed as BAZ2A degradation at 1 uM after 4 hrs by western blot analysis. In kind it is cell-based.
Test [21] shares this target. In words: PROTAC activity at BAZ2A/VHL in human PC-3 cells assessed as degradation at 1 uM after 4 hrs in the presence of MG132 by Western blot analysis. In kind it is cell-based.
Test [22] has the same target. As to the kind of experiment: PROTAC activity at BAZ2A/VHL in human PC-3 cells assessed as protein depletion at 1 uM after 4 hrs by Western blot analysis relative to control. In kind it is cell-based.
The target is the same in test [23]. In words: PROTAC activity at BAZ2A/VHL in human PC-3 cells assessed as degradation at 1 uM after 4 hrs in the presence of BAZ2-ICR by Western blot analysis. In kind it is cell-based.
For test [24], the target named is T2, von Hippel-Lindau disease tumor suppressor/Bromodomain adjacent to zinc finger domain protein 2B. In words: PROTAC activity at BAZ2B/VHL in human MM1.S cells assessed as BAZ2B degradation at 1 uM after 4 hrs by western blot analysis. In kind it is cell-based.
The target of test [25] is T1, von Hippel-Lindau disease tumor suppressor/Bromodomain adjacent to zinc finger domain protein 2A. In words: PROTAC activity at BAZ2A/VHL in human PC-3 cells assessed as maximum degradation after 4 hrs by Western blot analysis relative to control. In kind it is cell-based.
The target is the same in test [26]. In words: PROTAC activity at BAZ2A/VHL in human PC-3 cells assessed as degradation at 1 uM after 4 hrs in the presence of VH032 by Western blot analysis. In kind it is cell-based.

By UniProt entry, the sequences of proteins in these tests, tags left out. Where a name states a change or a piece, a line headed by the entry shows the natural chain unless it says otherwise.
UniProt Q9UIF9: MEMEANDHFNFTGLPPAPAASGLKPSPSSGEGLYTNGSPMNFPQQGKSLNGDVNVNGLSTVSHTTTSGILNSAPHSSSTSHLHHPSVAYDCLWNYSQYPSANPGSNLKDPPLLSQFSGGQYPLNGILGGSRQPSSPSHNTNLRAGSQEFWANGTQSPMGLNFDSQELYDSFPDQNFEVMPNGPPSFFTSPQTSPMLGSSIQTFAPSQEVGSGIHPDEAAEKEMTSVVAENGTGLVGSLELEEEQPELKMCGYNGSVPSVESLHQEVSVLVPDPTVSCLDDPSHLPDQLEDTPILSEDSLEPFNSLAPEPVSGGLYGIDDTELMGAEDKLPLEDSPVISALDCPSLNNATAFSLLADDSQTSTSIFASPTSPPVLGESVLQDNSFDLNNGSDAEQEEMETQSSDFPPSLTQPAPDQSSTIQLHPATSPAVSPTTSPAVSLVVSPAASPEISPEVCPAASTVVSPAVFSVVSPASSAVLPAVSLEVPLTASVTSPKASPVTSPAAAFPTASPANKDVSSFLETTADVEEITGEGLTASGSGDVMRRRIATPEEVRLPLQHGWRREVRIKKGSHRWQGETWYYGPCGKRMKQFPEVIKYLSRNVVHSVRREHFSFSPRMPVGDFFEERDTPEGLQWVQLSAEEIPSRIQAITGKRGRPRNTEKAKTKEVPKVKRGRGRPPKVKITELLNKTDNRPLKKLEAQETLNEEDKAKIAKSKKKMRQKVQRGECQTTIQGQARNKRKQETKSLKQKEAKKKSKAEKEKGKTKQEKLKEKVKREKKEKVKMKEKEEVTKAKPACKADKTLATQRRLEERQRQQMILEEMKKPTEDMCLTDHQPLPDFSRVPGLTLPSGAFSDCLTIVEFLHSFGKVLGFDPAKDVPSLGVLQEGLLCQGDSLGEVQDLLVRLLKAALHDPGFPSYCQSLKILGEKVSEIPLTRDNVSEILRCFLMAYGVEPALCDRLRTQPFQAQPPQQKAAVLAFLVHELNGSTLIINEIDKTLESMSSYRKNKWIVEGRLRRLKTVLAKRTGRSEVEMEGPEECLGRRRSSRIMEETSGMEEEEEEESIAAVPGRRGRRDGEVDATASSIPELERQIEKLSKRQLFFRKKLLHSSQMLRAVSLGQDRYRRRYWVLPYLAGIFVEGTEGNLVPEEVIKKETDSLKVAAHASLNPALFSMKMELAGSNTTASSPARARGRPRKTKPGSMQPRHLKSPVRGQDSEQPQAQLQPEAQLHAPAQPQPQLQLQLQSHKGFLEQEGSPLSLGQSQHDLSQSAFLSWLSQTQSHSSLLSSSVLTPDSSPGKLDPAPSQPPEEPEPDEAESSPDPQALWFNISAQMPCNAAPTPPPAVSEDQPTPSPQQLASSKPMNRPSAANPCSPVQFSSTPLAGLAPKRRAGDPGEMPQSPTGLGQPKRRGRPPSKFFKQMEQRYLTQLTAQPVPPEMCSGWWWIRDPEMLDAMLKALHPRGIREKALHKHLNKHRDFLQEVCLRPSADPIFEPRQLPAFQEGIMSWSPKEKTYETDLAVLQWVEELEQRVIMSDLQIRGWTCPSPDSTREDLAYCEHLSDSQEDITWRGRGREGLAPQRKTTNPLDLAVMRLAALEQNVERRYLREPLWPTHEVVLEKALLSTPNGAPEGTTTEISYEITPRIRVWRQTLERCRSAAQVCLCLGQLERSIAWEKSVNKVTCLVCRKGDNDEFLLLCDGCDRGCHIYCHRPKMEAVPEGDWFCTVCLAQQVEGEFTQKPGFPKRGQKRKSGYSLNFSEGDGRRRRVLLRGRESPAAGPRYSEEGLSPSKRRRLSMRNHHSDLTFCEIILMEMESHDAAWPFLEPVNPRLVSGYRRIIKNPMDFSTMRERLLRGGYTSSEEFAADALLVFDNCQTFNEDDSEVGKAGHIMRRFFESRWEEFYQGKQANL
UniProt P40337, whole entry, looked up: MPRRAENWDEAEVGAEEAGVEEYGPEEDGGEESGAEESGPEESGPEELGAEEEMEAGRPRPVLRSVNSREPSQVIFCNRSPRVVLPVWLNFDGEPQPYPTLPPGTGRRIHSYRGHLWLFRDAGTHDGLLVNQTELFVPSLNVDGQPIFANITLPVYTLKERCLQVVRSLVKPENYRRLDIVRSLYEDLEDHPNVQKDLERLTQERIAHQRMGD
UniProt Q9UIF8: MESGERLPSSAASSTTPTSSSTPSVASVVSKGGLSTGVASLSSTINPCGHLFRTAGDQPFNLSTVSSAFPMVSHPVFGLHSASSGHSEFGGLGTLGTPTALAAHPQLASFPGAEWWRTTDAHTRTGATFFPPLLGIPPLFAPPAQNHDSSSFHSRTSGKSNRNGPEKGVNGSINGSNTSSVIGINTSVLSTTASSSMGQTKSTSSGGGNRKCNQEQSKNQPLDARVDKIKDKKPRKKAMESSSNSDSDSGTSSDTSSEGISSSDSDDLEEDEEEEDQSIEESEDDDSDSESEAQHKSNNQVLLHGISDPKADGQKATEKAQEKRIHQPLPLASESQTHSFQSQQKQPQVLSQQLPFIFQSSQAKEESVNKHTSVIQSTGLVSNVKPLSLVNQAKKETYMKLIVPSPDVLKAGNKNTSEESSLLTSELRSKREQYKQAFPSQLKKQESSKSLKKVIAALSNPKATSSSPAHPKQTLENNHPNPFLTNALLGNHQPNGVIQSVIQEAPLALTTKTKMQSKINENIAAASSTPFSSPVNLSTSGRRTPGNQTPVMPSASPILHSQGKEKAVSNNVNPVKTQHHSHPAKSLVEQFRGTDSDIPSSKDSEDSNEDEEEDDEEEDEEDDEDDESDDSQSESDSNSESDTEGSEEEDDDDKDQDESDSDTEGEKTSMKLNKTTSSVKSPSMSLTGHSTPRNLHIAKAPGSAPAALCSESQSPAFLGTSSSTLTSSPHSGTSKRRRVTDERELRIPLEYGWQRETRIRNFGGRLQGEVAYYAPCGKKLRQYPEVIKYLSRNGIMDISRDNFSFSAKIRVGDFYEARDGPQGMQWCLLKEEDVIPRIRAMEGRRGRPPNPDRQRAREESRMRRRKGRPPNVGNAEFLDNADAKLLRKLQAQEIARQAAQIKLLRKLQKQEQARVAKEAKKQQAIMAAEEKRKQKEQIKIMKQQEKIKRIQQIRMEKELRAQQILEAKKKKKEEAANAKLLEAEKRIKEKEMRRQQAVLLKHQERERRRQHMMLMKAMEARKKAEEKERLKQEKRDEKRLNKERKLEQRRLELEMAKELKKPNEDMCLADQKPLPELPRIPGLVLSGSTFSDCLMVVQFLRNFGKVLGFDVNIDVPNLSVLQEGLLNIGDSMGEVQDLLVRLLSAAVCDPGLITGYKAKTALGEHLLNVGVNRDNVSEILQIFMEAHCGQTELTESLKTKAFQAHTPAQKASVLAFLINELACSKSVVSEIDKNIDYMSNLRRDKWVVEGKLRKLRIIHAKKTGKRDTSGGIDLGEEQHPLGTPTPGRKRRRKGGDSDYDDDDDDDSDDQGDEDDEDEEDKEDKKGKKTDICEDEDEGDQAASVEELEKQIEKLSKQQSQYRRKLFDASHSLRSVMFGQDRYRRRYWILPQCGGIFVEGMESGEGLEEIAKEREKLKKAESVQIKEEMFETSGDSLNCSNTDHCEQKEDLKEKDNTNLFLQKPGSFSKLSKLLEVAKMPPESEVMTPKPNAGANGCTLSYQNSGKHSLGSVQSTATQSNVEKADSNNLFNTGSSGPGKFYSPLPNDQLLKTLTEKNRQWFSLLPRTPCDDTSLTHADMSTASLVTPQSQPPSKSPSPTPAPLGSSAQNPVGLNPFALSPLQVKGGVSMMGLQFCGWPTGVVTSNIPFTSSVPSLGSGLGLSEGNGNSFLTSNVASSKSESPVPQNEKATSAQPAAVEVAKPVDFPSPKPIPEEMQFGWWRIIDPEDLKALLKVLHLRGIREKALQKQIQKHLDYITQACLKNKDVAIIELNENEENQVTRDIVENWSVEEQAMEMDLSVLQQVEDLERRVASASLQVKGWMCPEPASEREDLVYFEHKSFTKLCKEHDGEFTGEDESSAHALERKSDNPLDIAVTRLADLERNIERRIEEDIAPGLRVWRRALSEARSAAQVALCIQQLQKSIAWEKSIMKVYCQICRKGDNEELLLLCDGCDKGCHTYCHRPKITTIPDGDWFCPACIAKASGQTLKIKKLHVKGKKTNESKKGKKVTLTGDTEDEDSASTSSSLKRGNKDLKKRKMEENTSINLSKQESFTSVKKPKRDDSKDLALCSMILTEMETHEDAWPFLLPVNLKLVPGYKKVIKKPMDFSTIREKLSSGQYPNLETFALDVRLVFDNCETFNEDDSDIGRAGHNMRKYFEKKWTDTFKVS

By Emax is commonly meant the greatest response seen or fitted, relative to the assay's reference.

Each structure is given as a SMILES string. Active and inactive are the calls of the source. No cut-off for these calls is given here.

As for `Cc1ncsc1-c1ccc(CNC(=O)[C@@H]2C[C@H](O)CN2C(=O)[C@@H](NC(=O)C2(F)CC2)C(C)(C)SC[C@H]2CC[C@H](COCc3nc(-c4cnn(C)c4)c(-c4ccc(C#N)cc4)n3CCc3ccn(C)n3)CC2)cc1`, the result in [1] and in test [2] was inactive.

Consider `Cc1ncsc1-c1ccc(CNC(=O)[C@@H]2C[C@H](O)CN2C(=O)[C@@H](NC(=O)C2(F)CC2)C(C)(C)C)c(OC[C@H]2CC[C@H](COCc3nc(-c4cnn(C)c4)c(-c4ccc(C#N)cc4)n3CCc3cnn(C)c3)CC2)c1`, for which the result in [3] and in test [4] was inactive.

On to `Cc1ncsc1-c1ccc(CNC(=O)[C@@H]2C[C@@H](O)CN2C(=O)[C@@H](NC(=O)C2(F)CC2)C(C)(C)C)c(OC[C@H]2CC[C@H](COCc3nc(-c4cnn(C)c4)c(-c4ccc(C#N)cc4)n3CCc3cnn(C)c3)CC2)c1`, for which the Activity in test [5] is below 90%; in [9] it was above 84%; in test [14] it was above 84%; in test [15], 10.5%; in [18] it was 190%; in test [3], above 92%. For the same compound, the outcome (in test [6]; in test [8]; in [10]; in [11]; with MM1.S; in test [13]) was inactive. For the same compound, the outcome (in the test on PC-3; in test [4]) was inactive. In addition, the outcome in [7], in [12], in test [17] and in test [19] was Active. In addition, the Emax in test [16] was above 95%.

For the compound `Cc1ncsc1-c1ccc(CNC(=O)[C@@H]2C[C@@H](O)CN2C(=O)[C@@H](NC(=O)C2(F)CC2)C(C)(C)SC[C@H]2CC[C@H](COCc3nc(-c4cnn(C)c4)c(-c4ccc(C#N)cc4)n3CCc3cnn(C)c3)CC2)cc1`, the Activity in test [5] was 92%; in test [9], above 84%; in test [22], 92%; in test [1] it was above 92%; in test [14], above 84%; in test [15] it was 7.8%. The Activity in [2] was above 92%; in [18] it was 7.6%. In addition, the outcome in test [20], in test [12], in [24] and in test [17] was Active. Also, the outcome in [21], in test [23] and in [26] was inactive. The Emax in test [25] is above 97%; in test [16], above 99%.

The values above are taken from ChEMBL document CHEMBL6103605, “Discovery of First-in-Class BAZ2A/B and BAZ2B-Selective Degraders” (ACS Med Chem Lett, 2025).
